# Data published in EP4545138A1, “HETEROCYCLIC COMPOUNDS AS BLT2 AGONISTS AND THEIR MEDICAL USE” (Fraunhofer-Gesellschaft zur Förderung der angewandten …, priority 2023, dated 2025).
# Amino acid sequences for entries named in this document (tags omitted). A change or cut given only in a name is not applied to a line headed by its entry.
# UniProt Q15722: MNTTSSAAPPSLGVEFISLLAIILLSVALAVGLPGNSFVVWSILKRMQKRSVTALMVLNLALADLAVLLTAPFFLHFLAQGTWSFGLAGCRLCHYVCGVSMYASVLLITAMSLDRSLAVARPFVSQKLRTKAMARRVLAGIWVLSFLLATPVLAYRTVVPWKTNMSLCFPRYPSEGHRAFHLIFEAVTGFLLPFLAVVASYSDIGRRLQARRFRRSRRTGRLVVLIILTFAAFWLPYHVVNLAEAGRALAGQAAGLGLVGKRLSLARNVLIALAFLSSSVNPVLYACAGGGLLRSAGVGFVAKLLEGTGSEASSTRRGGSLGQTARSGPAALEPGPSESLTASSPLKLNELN
# Molecular target: BLT1 (Homo sapiens, UniProt Q15722)
# Assay: IP-One (IP-1 accumulation, HTRF) off-target assay in CHO-K1 cells stably overexpressing BLT1 + GNA15/16
# Settings: CHO-K1 cells overexpressing BLT1 + GNA15/16, LTB4 as reference agonist
substance,measurement,value
"1-(2-(2-(1H-Tetrazol-5-yl)phenyl)-2,7-diazaspiro[3.5]nonan-7-yl)pentan-1-one [Compound 18]",off-target test on BLT1,Inactive
